Assay results reported in ChEMBL document CHEMBL1275533, “In vitro antibacterial activity of vertilmicin and its susceptibility to modifications by the recombinant AAC6'-APH2'' enzyme” (2008).

Columns and labels:
Assay type in all cases: functional
[1] = test system: Staphylococcus epidermidis; experiment: Bactericidal activity against Staphylococcus epidermidis isolate 01-55 assessed as log reduction in viable-cell count at 0.25 MIC by time-kill study; conditions: 0.25 M
[2] = test system: Klebsiella pneumoniae; experiment: Bactericidal activity against Klebsiella pneumoniae isolate 01-21 assessed as log reduction in viable-cell count at 0.25 MIC by time-kill study; conditions: 0.25 M
[3] = test system: Staphylococcus epidermidis; experiment: Bactericidal activity against Staphylococcus epidermidis isolate 01-55 assessed as log reduction in viable-cell count at 0.5 MIC by time-kill study; conditions: 0.5 M
[4] = test system: Escherichia coli; experiment: Bactericidal activity against Escherichia coli ATCC 25922 assessed as log reduction in viable-cell count at 0.25 MIC by time-kill study; conditions: 0.25 M
[5] = test system: Klebsiella pneumoniae; experiment: Bactericidal activity against Klebsiella pneumoniae isolate 01-21 assessed as log reduction in viable-cell count at 0.5 MIC by time-kill study; conditions: 0.5 M
[6] = test system: Staphylococcus aureus; experiment: Bactericidal activity against Staphylococcus aureus ATCC 29213 assessed as log reduction in viable-cell count at 0.25 MIC by time-kill study; conditions: 0.25 M
[7] = test system: Staphylococcus aureus; experiment: Bactericidal activity against Staphylococcus aureus ATCC 29213 assessed as log reduction in viable-cell count at 0.5 MIC by time-kill study; conditions: 0.5 M
[8] = test system: Escherichia coli; experiment: Bactericidal activity against Escherichia coli ATCC 25922 assessed as log reduction in viable-cell count at 0.5 MIC by time-kill study; conditions: 0.5 M

Measured: FC

GENTAMICIN
3: [1] | [2] | [3] | [4] | [5] | [6] | [7] | [8]
